Assay results from patent publication US20250092035A1, “ISOCITRATE DEHYDROGENASE 1 INHIBITORS AND METHODS OF USE THEREOF” (THE WISTAR INSTITUTE OF ANATOMY AND BIOLOGY, priority 2022, published 2025).

Amino acid sequences for entries named in this document (tags omitted).
UniProt O75874, whole entry: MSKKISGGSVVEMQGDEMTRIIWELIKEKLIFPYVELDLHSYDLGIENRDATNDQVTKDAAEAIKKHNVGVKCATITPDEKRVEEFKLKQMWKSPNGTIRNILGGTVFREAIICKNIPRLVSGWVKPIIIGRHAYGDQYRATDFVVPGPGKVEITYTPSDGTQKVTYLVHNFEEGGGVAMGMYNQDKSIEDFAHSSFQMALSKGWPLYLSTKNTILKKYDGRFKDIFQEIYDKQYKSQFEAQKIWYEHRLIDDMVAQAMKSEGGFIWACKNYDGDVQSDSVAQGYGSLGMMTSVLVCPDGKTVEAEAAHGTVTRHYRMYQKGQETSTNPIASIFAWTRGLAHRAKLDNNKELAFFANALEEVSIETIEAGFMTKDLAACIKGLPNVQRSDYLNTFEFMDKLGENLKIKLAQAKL

Legend:
[1] = target: T1, IDH1 (Homo sapiens, UniProt O75874); assay: IC50 dose-response curve fits (Example 1, assay not described); assay type: biochemical; conditions: curve fit
[2] = target: T1, IDH1; assay: IC50 in two trials and mean (Example 1, assay not described); assay type: biochemical
[3] = target: T2, wtIDH1 (Homo sapiens, UniProt O75874); assay: HTRF IDH1 binding assay (displacement of probe IK-1-012); conditions: 200 nM probe; read-out: IC50 of competitive displacement of IK-1-012 from wtIDH1
T2 construct: purchased ActiveMotif

Compound: C[C@@H]1CN(C(=O)c2ccc[nH]2)Cc2c(C(=O)Nc3cccc([C@@H](C)O)c3)nn(Cc3ccc(F)cc3)c21 [FSM-206, reference compound]
- IC50 [1]: 22 nM
- IC50 ([2]; Trial 1, read-out: IC50, Trial 1): 25 nM
- IC50 ([2]; Trial 2, read-out: IC50, Trial 2): 27 nM
- IC50 ([2]; mean of the trials, read-out: Mean IC50): 26 nM
- IC50 [3]: 1.9 nM
